The target of experiment [1] is 5-hydroxytryptamine receptor 2A (Rattus norvegicus) (UniProt P14842). Briefly: Antagonist activity at 5-HT2A receptor in Sprague-Dawley rat ielum assessed as reduction in 5-HT-evoked contraction relative to control. The format is functional.
Experiment [2] has the same target. Briefly: Agonist activity at 5-HT2A receptor in Sprague-Dawley rat ileum assessed as induction of contraction. The format is functional.

Amino acid sequences for entries named in this document (tags omitted).
UniProt P14842, whole entry: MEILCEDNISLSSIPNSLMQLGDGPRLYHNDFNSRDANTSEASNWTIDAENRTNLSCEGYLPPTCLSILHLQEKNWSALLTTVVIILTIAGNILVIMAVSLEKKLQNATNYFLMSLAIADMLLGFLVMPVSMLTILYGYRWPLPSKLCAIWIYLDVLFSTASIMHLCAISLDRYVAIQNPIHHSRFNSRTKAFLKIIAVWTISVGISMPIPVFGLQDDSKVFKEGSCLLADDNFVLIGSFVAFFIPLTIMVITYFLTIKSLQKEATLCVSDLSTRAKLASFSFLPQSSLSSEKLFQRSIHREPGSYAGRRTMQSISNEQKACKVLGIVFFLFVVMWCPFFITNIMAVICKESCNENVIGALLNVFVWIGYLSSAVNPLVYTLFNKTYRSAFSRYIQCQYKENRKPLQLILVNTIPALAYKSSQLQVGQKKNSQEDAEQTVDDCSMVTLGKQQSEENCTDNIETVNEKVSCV

Consider 2 compounds from ChEMBL document CHEMBL4177580, “New 5-HT1A, 5HT2A and 5HT2C receptor ligands containing a picolinic nucleus: Synthesis, in vitro and in vivo pharmacological evaluation” (Bioorg Med Chem, 2017).

Calls of active or inactive are those of the source. The calls are words filed in the database; no cut-off is given here.

In the case of `COc1ccc(N2CCN(CCNC(=O)c3ccccn3)CC2)cc1`, in experiment [1], the Emax result is “inactive”. Besides, the result in experiment [2] was inactive.
For `O=C(NCCN1CCN(c2ccccc2)CC1)c1ccccn1`, the Emax entry in experiment [1] is “inactive”. For the same compound, in experiment [2], the outcome was inactive.
